Assay results as given in US5084454A, “2-(piperidinylmethyl)-4-phenyl-2,3-dihydro-4H-1,4-benzoxazines useful as antipsychotics” (Farmitalia Carlo Erba S.r.l., priority 1988, dated 1992).
Read-outs that look alike come from different tables or passages of the source.

What was measured:
[1] = tested on: apomorphine-induced climbing behaviour in mice; test: antagonism of apomorphine-induced climbing behaviour in mice; format: in vivo, mouse; details: for ED50: Mus musculus, po; for ED50 Climbing: oral
Procedure: The activity of the compounds of the present invention on the central nervous system was also evaluated by following for instance the technique of Protais P. et al. (Psychopharmacology, 50, 1 (1976).
The toxicity of the compounds of the invention is negligible, therefore they can be safely used in therapy. Nine hours food deprived mice were treated orally with single administration of increasing doses, then housed and normally fed. The orientative acute toxicity (LD50) was assessed on the seventh day after the treatment and resulted, in general, higher than 600 mg/kg. Following Table 2 summarizes the biological data obtained according to the above mentioned tests for some compounds of the present invention; Haloperidol has been evaluated in the same tests for comparative purposes.

in vivo [2] = details: mouse, po, ED50 Catalepsy
mice = details: datum given according to Il Farmaco Ed. Sc. 1976, 31, 442; 10080 min; cited from earlier work
D1 dopamine receptor = molecular target: T1, D1 dopamine receptor (Rattus norvegicus, UniProt P18901); test: D1 dopamine receptor binding affinity, [3H]cis-Flupenthixol; details: read-out: IC50 D1 [3H]cisFlu.
T1 construct: from tissue

5HT2 serotonine receptor = molecular target: T2, 5HT2 serotonine receptor (Rattus norvegicus, UniProt P14842); test: 5HT2 serotonine receptor binding affinity, [3H]Ketanserine; details: read-out: IC50 5HT2 [3H]Ket.
T2 construct: from tissue
Procedure: The activity of the compounds of the present invention was evaluated for example in a series of receptorial binding affinity tests.
J. Pharmacol. 1977, 46, 377; Hyttel, J. Life Sci. 1981, 28, 563; Pedigo et al. Journal of Neurochemistry, 1981, 36, 220; Leysen et al. Molecular Pharmacology, 1981, 21, 301; Battaglia et al. Life Science, 1983, 33, 2011; Greengrass P., Brener R. Eur. J. Pharmacol., 1979, 55, 323; and Perry B. D., U'Prichard D. C. Eur. J. Pharmacol. 1981, 76, 461]
In the table cis-Flu. means cis-Flupenthixol; Spip. means Spiperone; Serot. means Serotonin; Ket. means Ketanserine; Praz. means Prazosin and Yohim. means Yohimbine, respectively. The above internal FCE codes refer to the following compounds

D2 dopamine receptor = molecular target: T3, D2 dopamine receptor (Rattus norvegicus, UniProt P61169); test: D2 dopamine receptor binding affinity, [3H]Spiperone
T3 construct: from tissue

[3] = tested on: cataleptic activity in the mouse; details: in vivo, po; for ED50 Catalepsy: 6 h
in vivo [4] = details: mouse, po

SMILES	ED50 [1] [mg/kg]	ED50 at 6 h (in vivo [2]) [mg/kg]	LD50 (mice) [mg/kg/os]	IC50 (D1 dopamine receptor) [µM]	IC50 (5HT2 serotonine receptor) [µM]	IC50 (D2 dopamine receptor; IC50 D2 [3H]Spip.) [µM]	(ED50 Catalepsy / ED50 Climbing) [3]	LD50 at 168 h (in vivo [4]) [mg/kg]	ED50 Climbing [1] [mg/kg/os]	ED50 Catalepsy [3] [mg/kg]	IC50 (D2 dopamine receptor; read-out: IC50 D2 [3H]Spip.) [µM]
O=C(CCCN1CCC(O)(c2ccc(Cl)cc2)CC1)c1ccc(F)cc1 [Haloperidol, reference compound]	0.5	2.2	71	–	–	–	–	–	–	–	–
O=C1NCN(c2ccccc2)C12CCN(CC1CN(c3ccccc3)c3ccc(F)cc3O1)CC2 (centres unmarked) [FCE 25848, 2-(1-phenyl-1,3,8-triazaspiro[4,5]decan-4-one-8-yl)-methyl-4-phenyl-7-fluoro-2,3-dihydro-4H-1,4-benzoxazine]	–	–	–	2.4	0.03	0.04	–	–	–	–	–
OC1(c2cccc(C(F)(F)F)c2)CCN(CC2CN(c3ccccc3)c3ccccc3O2)CC1 (centres unmarked) [FCE 25456, 2-[4-(3-trifluoromethyl-phenyl)-4-hydroxy-piperidin-1-yl]-methyl-4-phenyl-2,3-dihydro-4H-1,4-benzoxazine]	2.5	20	–	> 10	0.1	0.001	8	> 800	–	–	–
O=C1NCN(c2ccccc2)C12CCN(CC1CN(c3ccccc3)c3ccccc3O1)CC2 (centres unmarked) [FCE 24867, 2-(1-phenyl-1,3,8-triazaspiro[4,5]decan-4-one-8-yl)-methyl-4-phenyl-2,3-dihydro-4H-1,4-benzoxazine]	4.5	30.8	–	1.4	0.04	0.008	–	–	–	–	–
O=C1NCN(c2ccccc2)C12CCN(CC1CN(c3ccc(F)cc3)c3ccccc3O1)CC2 (centres unmarked) [FCE 25676, 2-(1-phenyl-1,3,8-triazaspiro[4,5]decan-4-one-8-yl)-methyl-4-(4-fluorophenyl)-2,3-dihydro-4H-1,4-benzoxazine]	4.9	75	–	1	0.02	0.002	–	–	–	–	–
O=C1NCN(c2ccccc2)C12CCN(CC1CN(c3ccccc3)c3ccccc3O1)CC2 (single isomer, unassigned; (+)) [FCE 25895, (+) 2-(1-phenyl-1,3,8-triazaspiro[4,5]decan-4-one-8-yl)-methyl-4-phenyl-2,3-dihydro-4H-1,4-benzoxazine]	–	–	–	1.2	0.006	0.005	–	–	3.8	61	–
O=C1NCN(c2ccccc2)C12CCN(CC1CN(c3ccccc3)c3ccccc3O1)CC2 (single isomer, unassigned; (-)) [FCE 25896, (-) 2-(1-phenyl-1,3,8-triazaspiro[4,5]decan-4-one-8-yl)-methyl-4-phenyl-2,3-dihydro-4H-1,4-benzoxazine]	–	–	–	> 10	0.08	–	12.6	> 800	1.8	22.7	0.2
O=C1NCN(c2ccccc2)C12CCN(CC1CN(c3ccc(F)cc3)c3ccc(F)cc3O1)CC2 (centres unmarked) [FCE 25452, 2-(1-phenyl-1,3,8-triazaspiro[4,5]decan-4-one-8-yl)-methyl-4-(4-fluorophenyl)-7-fluoro-2,3-dihydro-4H-1,4-benzoxazine]	–	–	–	0.9	0.02	0.009	–	–	–	–	–
